Laboratory results as given in ChEMBL document CHEMBL1133696, “Development of a lead inhibitor for the A16V+S108T mutant of dihydrofolate reductase from the cycloguanil-resistant strain (T9/94) of Plasmodium falciparum” (J Med Chem, 2000).

Chains of the proteins cited; added tags and fusions are not shown.
UniProt P13922, whole entry, looked up, stated change not applied: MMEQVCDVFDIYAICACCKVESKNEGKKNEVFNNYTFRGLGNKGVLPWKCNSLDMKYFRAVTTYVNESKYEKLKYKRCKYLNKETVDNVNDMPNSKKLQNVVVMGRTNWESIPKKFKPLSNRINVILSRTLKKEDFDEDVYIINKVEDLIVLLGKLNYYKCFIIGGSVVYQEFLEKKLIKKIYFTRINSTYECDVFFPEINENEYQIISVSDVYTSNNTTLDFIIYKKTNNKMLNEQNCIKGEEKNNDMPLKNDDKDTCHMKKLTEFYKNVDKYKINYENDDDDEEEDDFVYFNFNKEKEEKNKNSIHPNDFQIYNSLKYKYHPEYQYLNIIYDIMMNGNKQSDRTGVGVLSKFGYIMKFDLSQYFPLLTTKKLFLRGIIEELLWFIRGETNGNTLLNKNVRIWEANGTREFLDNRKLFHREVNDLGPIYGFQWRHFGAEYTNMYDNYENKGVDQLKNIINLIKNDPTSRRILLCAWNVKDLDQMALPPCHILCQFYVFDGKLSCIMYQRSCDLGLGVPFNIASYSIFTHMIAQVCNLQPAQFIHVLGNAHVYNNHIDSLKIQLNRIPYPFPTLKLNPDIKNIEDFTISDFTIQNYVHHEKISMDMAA

Assays:
[1] = biological target: Bifunctional dihydrofolate reductase-thymidylate synthase (Plasmodium falciparum K1) (UniProt P13922); assay: Evaluated for activity of relative to Cycloguanil
[2] = biological target: Bifunctional dihydrofolate reductase-thymidylate synthase (Plasmodium falciparum K1) (UniProt P13922); assay: Evaluated for activity of compound relative to Cycloguanil
[3] = biological target: Bifunctional dihydrofolate reductase-thymidylate synthase (Plasmodium falciparum K1, UniProt P13922, A16V/S108T); assay: Inhibition constant (Ki mut) against A16V+S108T Mutant DHFRs of Plasmodium falciparum
[4] = biological target: Bifunctional dihydrofolate reductase-thymidylate synthase (Plasmodium falciparum K1) (UniProt P13922); assay: Ratio of inhibitory constant of mutant by wild-type DHFRs of Plasmodium falciparum
[5] = biological target: Bifunctional dihydrofolate reductase-thymidylate synthase (Plasmodium falciparum K1) (UniProt P13922); assay: Selectivity ratio of growth inhibition against Plasmodium falciparum TM4/8.2(wild-type) and T9/94(mutant); assay type: functional

Row | SMILES | Relative activity [1] | Relative activity [2] | Ki [3] [nM] | Ratio [4] | IC50 ratio [5]
1 | CC1(C)N=C(N)N=C(N)N1c1cccc(Cl)c1 | 2.5 | 0.3 | 340 | 92 | 4.97
2 | CC1N=C(N)N=C(N)N1c1cccc(Cl)c1 (configuration not stated) |  | 0.03 | 38.7 |  | 
